Results as given in patent publication US10434077B2, “Glycolic acid and/or D-lactic acid for the treatment of neurodegenerative diseases” (MAX-PLANCK-GESELLSCHAFT ZUR FOERDERUNG DER WISSENSCHAFTEN …, priority 2014, dated 2019).

Tested on: primary dopaminergic neurons from wild-type E14.5 embryos treated with PQ2+
Settings: 12.5 μM PQ2+ for 72 hours, 10 mM supplement

Question: For `O=C(O)CO` [GA, 2-hydroxyethanoic acid], which “rescue of the toxic effect of paraquat on dopaminergic neurons” value is on record?
Answer: significantly rescue the toxic effect of paraquat
